The structures appear in SMILES notation. The entries are a selection whose mix differs from that of the whole data set. Results filed as inconclusive are left out. Activity calls are given as the source filed them. Calls come from the whole dose curve; as a rule, active = well fitted falling curve with a large enough effect; inconclusive = small, poorly fitted or top-dose-only effect; inactive = no such curve, though single readings can be large or run the other way.

Chains of the proteins cited; added tags and fusions are not shown.
UniProt P80244, whole entry: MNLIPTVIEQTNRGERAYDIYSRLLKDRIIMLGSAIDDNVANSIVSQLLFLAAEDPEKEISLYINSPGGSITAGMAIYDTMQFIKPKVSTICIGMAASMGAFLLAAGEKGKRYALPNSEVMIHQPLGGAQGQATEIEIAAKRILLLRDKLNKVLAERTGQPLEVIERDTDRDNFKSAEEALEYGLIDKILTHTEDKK

The target in the test is ATP-dependent Clp protease proteolytic subunit (Bacillus subtilis (strain 168)) (UniProt P80244). Description: qHTS Assay for Activators of ClpP. Note: the source files actives as falling curves though it sought activators and does not explain the sign; nearly all actives have a fitted effect of over 65% in size. The settings on record: purified B. subtilis ClpP, FRET peptide cleavage, 20 min; at 57.5 µM (top of the series). (Quantitative high-throughput screening tests each substance at several concentrations.)
Turning to `CP(=O)(Nc1ccc(SC(F)(F)F)cc1)Oc1ccccc1` (stereo not drawn), the activity change, negative = active is inactive: -1.37%.
Regarding `Nc1cccc([As](=O)(O)c2ccccc2)c1`, the activity change, negative = active is inactive: -0.695%.
Take `Cc1ccc(OCC(=O)OC2CN3CCC2CC3)cc1` (stereo not drawn): the activity change, negative = active is inactive: 1.45%.
For `O=[As](O)(c1cccs1)c1cccs1`, the activity change, negative = active is inactive: 0.952%.
`O=P1(Nc2ccc(Br)cn2)COc2ccccc2OC1`: the activity change, negative = active was inactive: -3.11%.
Consider `NS(=O)(=O)c1cccc(NC(=O)COC(=O)C(O)(c2ccccc2)c2ccccc2)c1`, for which the activity change, negative = active is inactive: 1.99%.
As for `COc1ccccc1OP(C)(=O)Nc1c(C)cccc1C` (stereo not drawn), the activity change, negative = active is inactive: -2.19%.
For the molecule `CN1CCCCC1COC(=O)C1(O)c2ccccc2CCc2ccccc21` (stereo not drawn), the activity change, negative = active was inactive: -3.57%.
In the case of `O=P1(Nc2ncccn2)COc2ccccc2OC1`, the activity change, negative = active is inactive: 1.39%.
The result for `O=P1(N(CCCl)CCCl)NCCC(C(F)(F)F)O1` (stereo not drawn) reads inactive: -0.457%; that for `Clc1n[nH]nc1-c1nn[nH][15n]1`, inactive: -0.677%.
On to `CN(Cc1cccnc1)C(=O)COc1ccc(Cl)c(Cl)c1.O=[N+]([O-])c1cc([N+](=O)[O-])c(O)c([N+](=O)[O-])c1`, for which the activity change, negative = active was inactive: 2.53%.
Consider `CC(C)(C)C(=O)NC(Sc1ncccn1)C(Cl)(Cl)Cl` (stereo not drawn), for which the activity change, negative = active was inactive: 0.214%.
For `O=P1(Nc2ccccn2)COc2ccccc2OC1` the value was inactive: -9.29%; for `CCC1=CC2Cc3nc4ccc(Cl)cc4c(N)c3C(C1)C2` (stereo not drawn), inactive: -24.5%; for `O=C(O)C(O)c1ccc(N(CCCl)CCCl)cc1.c1ccncc1` (stereo not drawn), inactive: -1.7%.
On to `CCOP(=O)(NC(=NC(C)c1ccccc1)NC(C)c1ccccc1)OCC` (stereo not drawn), for which the activity change, negative = active is inactive: 0.388%.
Turning to `Nc1ccc(CCCCOc2ccccc2)cc1.O=[N+]([O-])c1cc([N+](=O)[O-])c(O)c([N+](=O)[O-])c1`, the activity change, negative = active was inactive: 1.93%.
The result for `CCOP(=O)(Nc1ccc(C)cn1)OCC` reads inactive: -29.2%; that for `CN(CCCl)Cc1cc(Cl)c(NC2=NCCN2)c(Cl)c1`, inactive: -2.44%.
Turning to `Cc1ccc(S(=O)(=O)N(CCCN)CCCc2c(C)nc(N)[nH]c2=O)cc1.O=[N+]([O-])c1cc([N+](=O)[O-])c(O)c([N+](=O)[O-])c1`, the activity change, negative = active is inactive: -2.18%.
For `CC(C)/C=N\N=C(\N)N[N+](=O)[O-]`, the activity change, negative = active is inactive: 0.691%.
For the molecule `CN(C(=O)Cc1ccc(Cl)c(Cl)c1)[C@@H]1CCCC[C@H]1N1CCCC1`, the activity change, negative = active is inactive: -3.04%.
For `CC1(CBr)Cn2c(nc3ccccc3c2=O)S1` (stereo not drawn) the value was inactive: -1.24%.
For `Cc1nc2ccc3ccccc3c2s1.O=[N+]([O-])c1cc([N+](=O)[O-])c(O)c([N+](=O)[O-])c1`, the activity change, negative = active is inactive: 1.26%.
The result for `COc1ccccc1CNC(=O)COC(=O)C(O)(c1ccccc1)c1ccccc1` reads inactive: -2.64%.
On to `Cc1cccc(OCC(=O)OC2CN3CCC2CC3)c1` (stereo not drawn), for which the activity change, negative = active was inactive: -0.701%.
On to `O=[As](O)(c1cccc(O)c1)c1cccc(O)c1`, for which the activity change, negative = active is inactive: -1.78%.
Regarding `Cc1cc(C)cc(OP(C)(=O)Nc2ccc(C)cc2C)c1` (stereo not drawn), the activity change, negative = active was inactive: 0.515%.
For the molecule `CCOC(=O)c1ccc(NP(C)(=O)Oc2cc(C)cc(C)c2)cc1` (stereo not drawn), the activity change, negative = active is inactive: 0.63%.
For the molecule `O=[As](O)(O)c1cccnc1`, the activity change, negative = active was inactive: 0.071%.
On to `COc1ccccc1OP(C)(=O)Nc1cccc(Br)c1` (stereo not drawn), for which the activity change, negative = active was inactive: 0.755%.
For `CS(=O)(=O)c1ccc(Cl)c(NC(=O)COC(=O)C(O)(c2ccccc2)c2ccccc2)c1` the value was inactive: -0.677%.
For `Cc1cc(C)cc(OP(C)(=O)Nc2ccccn2)c1` (stereo not drawn) the value was inactive: -2.4%; for `Cc1ccc(NCCc2c([N+](=O)[O-])cc([N+](=O)[O-])cc2[N+](=O)[O-])cc1`, inactive: 1.56%.
As for `Nc1cccc2c([As](=O)(O)O)cccc12`, the activity change, negative = active is inactive: -15.4%.
For the molecule `Cc1ccc(C)c(NP(C)(=O)Oc2ccccc2)c1` (stereo not drawn), the activity change, negative = active was inactive: -1.46%.
As to `CCCOP(=S)(Nc1nc(N)cc(=O)[nH]1)OCCC`, the activity change, negative = active was inactive: 0.13%.
For the molecule `CCOP1(=S)c2c(C)nn(CCC#N)c2N=C(c2ccccc2F)N1C` (stereo not drawn), the activity change, negative = active was inactive: -0.65%.
For `O=P(Nc1nccs1)(Oc1ccccc1)Oc1ccccc1` the value was inactive: -0.0524%; for `O=P(Nc1nccs1)(c1ccccc1)c1nc2ccccc2s1` (stereo not drawn), inactive: -4.32%; for `N#CCCN(C(=O)COC(=O)C(O)(c1ccccc1)c1ccccc1)c1ccc(F)cc1`, inactive: -0.354%.
Take `CCOP1(=S)c2c(C)nn(CCC#N)c2N=C(c2ccc(F)cc2)N1C` (stereo not drawn): the activity change, negative = active is inactive: -3.08%.
For the molecule `CN(C(=O)Cc1ccccc1)[C@@H]1CC[C@]2(CCCO2)C[C@H]1N1CCCC1`, the activity change, negative = active was inactive: -0.123%.
As for `O=[N+]([O-])c1ccc2c(c1)nnn2O`, the activity change, negative = active was inactive: 0.222%.
In the case of `CC1=NCCc2c1[nH]c1ccccc21.O=[N+]([O-])c1cc([N+](=O)[O-])c(O)c([N+](=O)[O-])c1`, the activity change, negative = active is inactive: -13.5%.
For `CN(C(=O)Cc1ccc(Cl)c(Cl)c1)[C@H]1CC[C@@]2(CCCO2)C[C@@H]1N1CCCC1` the value was inactive: -0.0922%.
Turning to `NC(=O)Nc1ccc([As](=O)(O)O)cc1`, the activity change, negative = active was inactive: 0.534%.

Values taken from PubChem BioAssay AID651965 (National Center for Advancing Translational Sciences (NCATS), 2013).
